Test system: Mycobacterium tuberculosis
Assay: Antitubercular activity against Mycobacterium tuberculosis Erdman ATCC 35801 infected in C57BL/6 mouse assessed as viable bacterial load in lung at 10 mg/kg/day through gavage 5 days per week for 4 weeks starting on 10th day post-infection (reference value: 6.49 +/- 0.10 log10CFU/lung)
Type: functional

CO[C@H]1/C=C/O[C@@]2(C)Oc3c(C)c(O)c4c(O)c(c(/C=N/N5CCN(C)CC5)c(O)c4c3C2=O)NC(=O)/C(C)=C\C=C\[C@H](C)[C@H](O)[C@@H](C)[C@@H](O)[C@@H](C)[C@H](OC(C)=O)[C@@H]1C [RIFAMPIN]
log10cfu: 5.75
